From ChEMBL document CHEMBL2311273, “Discovery of potent, selective multidrug and toxin extrusion transporter 1 (MATE1, SLC47A1) inhibitors through prescription drug profiling and computational modeling” (J Med Chem, 2013)

Columns and labels:
Assay type in all cases: cell-based
[1] = biological target: T1, Multidrug and toxin extrusion protein 1 (Homo sapiens, UniProt Q96FL8); test: Inhibition of human MATE1-mediated ASP+ uptake expressed in HEK293 cells after 1.5 mins by fluorescence assay
T1 sequence (Q96FL8 whole entry): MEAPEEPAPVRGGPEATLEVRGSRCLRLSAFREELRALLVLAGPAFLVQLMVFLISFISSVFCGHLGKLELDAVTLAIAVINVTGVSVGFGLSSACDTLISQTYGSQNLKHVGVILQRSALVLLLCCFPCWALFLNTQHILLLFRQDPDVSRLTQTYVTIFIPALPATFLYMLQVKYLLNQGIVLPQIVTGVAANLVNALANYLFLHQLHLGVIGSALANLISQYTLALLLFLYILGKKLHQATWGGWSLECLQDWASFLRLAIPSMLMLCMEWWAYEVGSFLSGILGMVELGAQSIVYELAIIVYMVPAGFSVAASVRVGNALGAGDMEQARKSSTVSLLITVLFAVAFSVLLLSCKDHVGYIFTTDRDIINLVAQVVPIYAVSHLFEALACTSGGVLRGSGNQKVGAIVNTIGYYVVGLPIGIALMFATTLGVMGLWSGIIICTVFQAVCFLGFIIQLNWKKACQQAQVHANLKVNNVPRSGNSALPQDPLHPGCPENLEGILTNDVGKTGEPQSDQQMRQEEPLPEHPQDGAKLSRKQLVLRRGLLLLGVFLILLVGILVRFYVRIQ

[2] = biological target: T2, Multidrug and toxin extrusion protein 2 (Homo sapiens, UniProt Q86VL8); test: Inhibition of human MATE2K-mediated ASP+ uptake expressed in HEK293 cells up to 500 uM after 1.5 mins by fluorescence assay
T2 sequence (Q86VL8 whole entry): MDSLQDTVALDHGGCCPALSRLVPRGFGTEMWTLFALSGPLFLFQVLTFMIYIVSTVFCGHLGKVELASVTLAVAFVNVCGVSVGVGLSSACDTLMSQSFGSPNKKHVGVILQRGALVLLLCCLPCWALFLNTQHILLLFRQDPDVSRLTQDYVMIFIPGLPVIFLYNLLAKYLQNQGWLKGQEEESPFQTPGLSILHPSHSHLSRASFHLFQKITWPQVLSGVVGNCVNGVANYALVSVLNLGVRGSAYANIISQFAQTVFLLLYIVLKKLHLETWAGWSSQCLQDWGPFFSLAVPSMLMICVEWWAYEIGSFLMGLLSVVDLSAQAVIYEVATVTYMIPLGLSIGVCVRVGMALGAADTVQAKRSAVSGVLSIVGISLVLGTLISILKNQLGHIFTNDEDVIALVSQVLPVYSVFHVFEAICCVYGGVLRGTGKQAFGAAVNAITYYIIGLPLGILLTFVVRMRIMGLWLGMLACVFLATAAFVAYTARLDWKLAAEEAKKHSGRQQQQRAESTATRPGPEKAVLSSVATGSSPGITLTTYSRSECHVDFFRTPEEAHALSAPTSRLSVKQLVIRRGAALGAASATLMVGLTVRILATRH

[3] = biological target: T2, Multidrug and toxin extrusion protein 2; test: Inhibition of human MATE2K-mediated ASP+ uptake expressed in HEK293 cells after 1.5 mins by fluorescence assay

| Structure (SMILES) | IC50 [1] | IC50 [2] | IC50 [3] |
| --- | --- | --- | --- |
| Oc1c(Cl)cc(Cl)cc1Sc1cc(Cl)cc(Cl)c1O [BITHIONOL] | 5.2 µM | – | – |
| CN/C(=N/CCSCc1nc[nH]c1C)NC#N [CIMETIDINE] | 1.2 µM | – | – |
| C[C@]12CCC(=O)C=C1CC[C@@H]1[C@@H]2C(=O)C[C@@]2(C)[C@H]1CC[C@]2(O)C(=O)CO [CORTISONE] | 21.4 µM | – | – |
| O=C(O)c1cccnc1 [NIACIN] | > 500 µM | – | – |
| COc1ccc2c(c1OC)C(=O)O[C@@H]2[C@H]1c2c(cc3c(c2OC)OCO3)CCN1C [NOSCAPINE] | 34.5 µM | – | – |
| Cc1nccn1CC1CCc2c(c3ccccc3n2C)C1=O (centres undefined) [ONDANSETRON] | 0.16 µM | 0.16 µM | 0.3 µM |
| CNC(=C[N+](=O)[O-])NCCSCc1ccc(CN(C)C)o1 [RANITIDINE] | 8.3 µM | – | – |
